Earlier results, collected in paper PMC3094488 (European journal of pharmacology, 2011).

Sequences of proteins named here, by UniProt entry; tags and fusion partners are left off.
UniProt P47746, whole entry: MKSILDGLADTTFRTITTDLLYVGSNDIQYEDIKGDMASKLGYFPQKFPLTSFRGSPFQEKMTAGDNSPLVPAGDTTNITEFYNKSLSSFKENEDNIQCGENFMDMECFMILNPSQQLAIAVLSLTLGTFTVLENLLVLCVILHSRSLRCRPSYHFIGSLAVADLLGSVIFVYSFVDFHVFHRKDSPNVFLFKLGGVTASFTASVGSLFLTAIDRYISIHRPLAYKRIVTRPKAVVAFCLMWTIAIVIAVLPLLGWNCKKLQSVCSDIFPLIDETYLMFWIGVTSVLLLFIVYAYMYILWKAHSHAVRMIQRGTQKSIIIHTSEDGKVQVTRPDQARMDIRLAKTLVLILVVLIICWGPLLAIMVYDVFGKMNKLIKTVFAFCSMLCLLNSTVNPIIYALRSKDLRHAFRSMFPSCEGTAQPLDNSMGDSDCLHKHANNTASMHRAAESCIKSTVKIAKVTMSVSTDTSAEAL

Target: CB1 receptors (Mus musculus, UniProt P47746)
Conditions: ref Atwood et al., 2010; Straiker and Mackie, 2005; cited from earlier work

## CCCCCc1cc(O)c2c(c1)OC(C)(C)[C@@H]1CCC(C)=C[C@@H]21 [THC, Δ^9-tetrahydrocannabinol]
  effect on EPSCs: no inhibition of EPSCs
